# Measured values published in patent publication US20110288005A1 (AMUNIX OPERATING INC A DELWARE, published 2011).
# The chains behind the UniProt entries cited, without tags or fusion partners. Residues count along the entry.
# UniProt P00760, 24-246: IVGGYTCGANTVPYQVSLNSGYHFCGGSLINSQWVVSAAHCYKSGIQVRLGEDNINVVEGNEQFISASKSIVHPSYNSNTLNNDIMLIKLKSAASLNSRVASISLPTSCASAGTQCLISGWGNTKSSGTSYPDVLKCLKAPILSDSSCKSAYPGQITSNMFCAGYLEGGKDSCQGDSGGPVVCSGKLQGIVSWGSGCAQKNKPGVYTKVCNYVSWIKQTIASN
# B1: XTEN_AM923-aaT (other)
# chain: MAEPAGSPTSTEEGASPGTSSTGSPGSSTPSGATGSPGSSTPSGATGSPGTSTEPSEGSAPGSEPATSGSETPGSPAGSPTSTEEGSTSSTAESPGPGTSTPESGSASPGSTSESPSGTAPGSTSESPSGTAPGTSTPESGSASPGTSTPESGSASPGSEPATSGSETPGTSESATPESGPGSPAGSPTSTEEGTSTEPSEGSAPGTSESATPESGPGTSTEPSEGSAPGTSTEPSEGSAPGSPAGSPTSTEEGTSTEPSEGSAPGTSTEPSEGSAPGTSESATPESGPGTSESATPESGPGTSTEPSEGSAPGTSTEPSEGSAPGTSESATPESGPGTSTEPSEGSAPGSEPATSGSETPGSPAGSPTSTEEGSSTPSGATGSPGTPGSGTASSSPGSSTPSGATGSPGTSTEPSEGSAPGTSTEPSEGSAPGSEPATSGSETPGSPAGSPTSTEEGSPAGSPTSTEEGTSTEPSEGSAPGASASGAPSTGGTSESATPESGPGSPAGSPTSTEEGSPAGSPTSTEEGSTSSTAESPGPGSTSESPSGTAPGTSPSGESSTAPGTPGSGTASSSPGSSTPSGATGSPGSSPSASTGTGPGSEPATSGSETPGTSESATPESGPGSEPATSGSETPGSTSSTAESPGPGSTSSTAESPGPGTSPSGESSTAPGSEPATSGSETPGSEPATSGSETPGTSTEPSEGSAPGSTSSTAESPGPGTSTPESGSASPGSTSESPSGTAPGTSTEPSEGSAPGTSTEPSEGSAPGTSTEPSEGSAPGSSTPSGATGSPGSSPSASTGTGPGASPGTSSTGSPGSEPATSGSETPGTSESATPESGPGSPAGSPTSTEEGSSTPSGATGSPGSSPSASTGTGPGASPGTSSTGSPGTSESATPESGPGTSTEPSEGSAPGTSTEPSEGSAPGEDPQGDAAQKTDTSHHDQDHPTFNKITPNLAEFAFSLYRQLAHQSNSTNIFFSPVSIATAFAMLSLGTKADTHDEILEGLNFNLTEIPEAQIHEGFQELLRTLNQPDSQLQLTTGNGLFLSEGLKLVDKFLEDVKKLYHSEAFTVNFGDTEEAKKQINDYVEKGTQGKIVDLVKELDRDTVFALVNYIFFKGKWERPFEVKDTEEEDFHVDQVTTVKVPMMKRLGMFNIQHCKKLSSWVLLMKYLGNATAIFFLPDEGKLQHLENELTHDIITKFLENEDRRSASLHLPKLSITGTYDLKSVLGQLGITKVFSNGADLSGVTEEAPLKLSKAVHKAVLTIDEKGTEAAGAMFLEAIPMSIPPEVKFNKPFVFLMIEQNTKSPLFMGKVVNPTQK
# B2: aaT-XTEN_AM875 (other)
# chain: MAEDPQGDAAQKTDTSHHDQDHPTFNKITPNLAEFAFSLYRQLAHQSNSTNIFFSPVSIATAFAMLSLGTKADTHDEILEGLNFNLTEIPEAQIHEGFQELLRTLNQPDSQLQLTTGNGLFLSEGLKLVDKFLEDVKKLYHSEAFTVNFGDTEEAKKQINDYVEKGTQGKIVDLVKELDRDTVFALVNYIFFKGKWERPFEVKDTEEEDFHVDQVTTVKVPMMKRLGMFNIQHCKKLSSWVLLMKYLGNATAIFFLPDEGKLQHLENELTHDIITKFLENEDRRSASLHLPKLSITGTYDLKSVLGQLGITKVFSNGADLSGVTEEAPLKLSKAVHKAVLTIDEKGTEAAGAMFLEAIPMSIPPEVKFNKPFVFLMIEQNTKSPLFMGKVVNPTQKGGTSTEPSEGSAPGSEPATSGSETPGSPAGSPTSTEEGSTSSTAESPGPGTSTPESGSASPGSTSESPSGTAPGSTSESPSGTAPGTSTPESGSASPGTSTPESGSASPGSEPATSGSETPGTSESATPESGPGSPAGSPTSTEEGTSTEPSEGSAPGTSESATPESGPGTSTEPSEGSAPGTSTEPSEGSAPGSPAGSPTSTEEGTSTEPSEGSAPGTSTEPSEGSAPGTSESATPESGPGTSESATPESGPGTSTEPSEGSAPGTSTEPSEGSAPGTSESATPESGPGTSTEPSEGSAPGSEPATSGSETPGSPAGSPTSTEEGSSTPSGATGSPGTPGSGTASSSPGSSTPSGATGSPGTSTEPSEGSAPGTSTEPSEGSAPGSEPATSGSETPGSPAGSPTSTEEGSPAGSPTSTEEGTSTEPSEGSAPGASASGAPSTGGTSESATPESGPGSPAGSPTSTEEGSPAGSPTSTEEGSTSSTAESPGPGSTSESPSGTAPGTSPSGESSTAPGTPGSGTASSSPGSSTPSGATGSPGSSPSASTGTGPGSEPATSGSETPGTSESATPESGPGSEPATSGSETPGSTSSTAESPGPGSTSSTAESPGPGTSPSGESSTAPGSEPATSGSETPGSEPATSGSETPGTSTEPSEGSAPGSTSSTAESPGPGTSTPESGSASPGSTSESPSGTAPGTSTEPSEGSAPGTSTEPSEGSAPGTSTEPSEGSAPGSSTPSGATGSPGSSPSASTGTGPGASPGTSSTGSPGSEPATSGSETPGTSESATPESGPGSPAGSPTSTEEGSSTPSGATGSPGSSPSASTGTGPGASPGTSSTGSPGTSESATPESGPGTSTEPSEGSAPGTSTEPSEGSAP
# Columns and labels:
# [1] = molecular target: T1, bovine pancreatic trypsin (Sigma T1426) (bovine, UniProt P00760); experiment: cell-based or functional assay
# [2] = molecular target: T1, bovine pancreatic trypsin (Sigma T1426); experiment: cell-based or functional assay; remark: listed apart in the source
Binder,% Activity (compared to aaT positive control) [1],Activity units (-ΔVi/µM) [1],"IC50 (µM), equilibrium trypsin inhibition assay [2]"
B1,80%,0.054 -ΔVi/µM,–
B2,84%,0.057 -ΔVi/µM,0.48 µM
